ChEMBL document CHEMBL1137664, “Conflicting requirements of Plasmodium falciparum dihydrofolate reductase mutations conferring resistance to pyrimethamine-WR99210 combination” (Antimicrob Agents Chemother, 2007)

The chains behind the UniProt entries cited, without tags or fusion partners.
UniProt Q8I1R6, whole entry N51I/C59R/K96N/S108N/I164L: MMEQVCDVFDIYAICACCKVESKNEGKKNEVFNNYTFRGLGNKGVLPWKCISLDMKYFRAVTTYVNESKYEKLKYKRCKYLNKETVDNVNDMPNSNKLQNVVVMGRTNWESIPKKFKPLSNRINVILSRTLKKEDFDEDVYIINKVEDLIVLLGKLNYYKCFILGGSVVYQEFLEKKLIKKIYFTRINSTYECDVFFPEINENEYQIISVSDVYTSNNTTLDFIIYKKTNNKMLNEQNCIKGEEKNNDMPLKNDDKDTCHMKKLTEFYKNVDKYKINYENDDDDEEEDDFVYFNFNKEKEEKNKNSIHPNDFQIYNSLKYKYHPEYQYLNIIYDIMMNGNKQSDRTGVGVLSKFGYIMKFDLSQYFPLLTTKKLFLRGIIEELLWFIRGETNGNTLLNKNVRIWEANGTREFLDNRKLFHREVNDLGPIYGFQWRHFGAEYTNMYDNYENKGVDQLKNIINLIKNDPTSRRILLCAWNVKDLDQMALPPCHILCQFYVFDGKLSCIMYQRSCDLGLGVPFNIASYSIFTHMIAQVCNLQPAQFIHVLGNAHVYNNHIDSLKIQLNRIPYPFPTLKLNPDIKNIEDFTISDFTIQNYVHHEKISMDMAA

Columns and labels:
[1] = target: T1, Bifunctional dihydrofolate reductase-thymidylate synthase (Plasmodium falciparum (isolate 3D7), UniProt Q8I1R6, C59R/I164L/K96N/N51I/S108N); experiment: Inhibition of pyrimethamine-resistant form-2 Plasmodium falciparum N51I, C59R, S108N, I164L, K96N mutant expressed in Escherichia coli BL21(DE3) by Michaelis-Menten based competitive inhibition assay
[2] = target: T1, Bifunctional dihydrofolate reductase-thymidylate synthase; experiment: Inhibition of pyrimethamine-resistant form-2 Plasmodium falciparum N51I, C59R, S108N, I164L, K96N mutant expressed in Escherichia coli BL21(DE3)

Q: How did the Ki [1] turn out when `CCc1nc(N)nc(N)c1-c1ccc(Cl)cc1` [PYRIMETHAMINE] was run?
A: The Ki was 0.85 nM.

Q: What about the IC50 [2] of the same compound?
A: Its IC50 is 2480 nM.
